Measured values reported in publication PMC8025677 (Cell, 2020).

Sequences of proteins named here, by UniProt entry; tags and fusion partners are left off.
UniProt P31645, whole entry: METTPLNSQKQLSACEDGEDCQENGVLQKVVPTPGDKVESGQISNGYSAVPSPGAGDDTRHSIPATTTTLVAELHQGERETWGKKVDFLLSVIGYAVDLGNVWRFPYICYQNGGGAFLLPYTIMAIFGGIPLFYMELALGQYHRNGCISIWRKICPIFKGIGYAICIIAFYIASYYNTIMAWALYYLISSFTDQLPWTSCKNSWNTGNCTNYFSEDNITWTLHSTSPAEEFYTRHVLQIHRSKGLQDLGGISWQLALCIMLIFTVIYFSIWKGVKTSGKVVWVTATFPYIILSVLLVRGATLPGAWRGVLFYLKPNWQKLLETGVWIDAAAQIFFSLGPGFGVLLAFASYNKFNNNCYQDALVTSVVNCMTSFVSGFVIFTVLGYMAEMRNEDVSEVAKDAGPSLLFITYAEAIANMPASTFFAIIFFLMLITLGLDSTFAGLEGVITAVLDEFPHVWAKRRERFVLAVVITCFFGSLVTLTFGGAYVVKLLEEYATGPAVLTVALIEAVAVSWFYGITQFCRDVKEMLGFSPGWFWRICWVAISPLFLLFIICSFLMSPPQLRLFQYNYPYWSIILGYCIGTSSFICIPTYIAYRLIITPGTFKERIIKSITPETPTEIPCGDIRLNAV

Target: hSERT (Homo sapiens, UniProt P31645)
Experiment: oscillating stimulus transporter assay

For `[Na]` [sodium], the “Hill coefficient for sodium in 5-HT uptake” value was 1.9 ± 0.1 and the Km (read-out: hSERT Km for sodium in 5-HT uptake) was 6.5 ± 0.1 mM.
